Measured values published in PMC4356558, “Prediction of Chemical Respiratory Sensitizers Using GARD, a Novel In Vitro Assay Based on a Genomic Biomarker Signature” (PLoS ONE, 2015).

Assays:
MUTZ-3 cells = experiment: Chemical cytotoxicity, concentration yielding 90% relative viability (Rv90), propidium iodide staining; settings: independent test dataset
[1] = test system: GRPS genomic biomarker signature (389 transcripts) in MUTZ-3 cells; experiment: GARD assay with GARD Respiratory Prediction Signature (GRPS), SVM classification of respiratory sensitizers

Isoeugenol
Rv90 (MUTZ-3 cells): 300 µM | SVM decision value 1 ([1]; replicate stimulation 1, 24 h at GARD input concentration, independent test dataset, > 0 = respiratory sensitizer): −1.44 | SVM decision value 2 ([1]; replicate stimulation 2, 24 h at GARD input concentration, independent test dataset, > 0 = respiratory sensitizer): −1.27 | SVM decision value 3 ([1]; replicate stimulation 3, 24 h at GARD input concentration, independent test dataset, > 0 = respiratory sensitizer): −1.32 | Classification, Pos if 1 sample > 0 ([1]; respiratory sensitizer if any of replicate stimulations has SVM decision value > 0): Non-sensitizer
